Measurements: article PMC10049495, “Antitumor Activity of PEGylated and TEGylated Phenothiazine Derivatives: Structure–Activity Relationship” (International Journal of Molecular Sciences, 2023)

Legend:
[1] = tested on: normal human dermal fibroblasts (NHDF); assay: Cytotoxicity MTS assay on normal fibroblasts; assay type: cell-based; details: 0.2 mM, 48 h
Protocol: (§1) Cell culture: NHDF, HeLa, HOS, HepG2, MCF7, MeWo and CT-26 cells were cultivated in complete Eagle’s Minimal Essential Medium alpha (aMEM) containing a 1% Penicillin–Streptomycin–Amphotericin B mixture and a 10% fetal bovine serum under 5% CO2 humidified atmosphere at 37 °C. LN-229 cells were cultivated in DMEM with a 1% Penicillin–Streptomycin–Amphotericin B mixture and a 5% fetal bovine serum. U-118 cells were cultivated in DMEM with a 1% Penicillin–Streptomycin–Amphotericin B mixture and a 10% fetal bovine serum. StemPro™ Accutase™ Cell Dissociation Reagent was used for passaging MeWo and U-118 cells, and TrypLE Express was used for all other cell lines. […]
(§2) Cytotoxicity MTS assay: In order to perform the MTS assay, cells were placed in culture-treated 96-well plates at densities of 5 × 10^3 cells/well (NHDF and CT-26), 7 × 10^3 cells/well (MCF7) and 10 × 10^3 cells/well (HOS, HeLa, HepG2, MeWo, LN-229, U-118) in 100 μL of a MEM medium/well and allowed to adhere for 24 h. […] Before the final reading, 20 μL CellTiter 96® Aqueous One Solution/well was added, and the plates were incubated for 1–4 h. Finally, the absorbance was recorded with a microplate reader at λ = 490 nm. […] Graphical data were expressed as means ± standard error of the mean (S.E.M.). […]

[2] = tested on: liver cancer (HepG2) cells; assay: Cytotoxicity MTS assay on HepG2; assay type: cell-based, human; details: HepG2, 0.2 mM, 48 h
Protocol: as §1, §2

“10-(poly(ethylene glycol))-10H-phenothiazine-3-carbaldehyde [PPF]” gave a cell viability [1] of 78% and a cell viability [2] of 15%.
